Assay results reported in patent publication US20240325544A1, “CATIONIC LIPID FOR COVALENT MODIFICATION OF PEPTIDES” (PharmalN Corporation, priority 2023, published 2024).
Marks after values point to notes of the source that are not given here.

Columns and labels:
cGMP = assay: Plasma cGMP after SC bolus of natriuretic peptides in CD-1 mice (pharmacodynamics, Table 3); type: in vivo; conditions: SC bolus 1.0 mg/kg (≤0.45 μmol/kg), baseline 10 +/−8 pmol/ml, n = 3-5
Protocol: (§1) The test articles were formulated or dissolved in sterile water for injection on the same day of administration. […] Blood samples were collected via retro-orbital bleed at 2- and 6-hours post-injection, with two bleedings per animal at two different timepoints. The samples were collected in K2EDTA tubes, processed by centrifugation (2000×g; 15 m 4 eC within 30 minutes after collection), and the resulting plasma samples were stored at −80° C. Biochemical analysis: The plasma concentration of the respective natriuretic peptide was analyzed using commercially available ELISA kits from Phoenix Pharmaceuticals (Burlingame, CA): ANP ELISA (cat #EKE-005-06), BNP ELISA (cat #EKE-011-03), and CNP ELISA (cat #EKE-012-03). […] Plasma cGMP was analyzed using a commercially available kit from Abcam (ab133052, Waltham, MA).

[1] = Plasma concentration of respective natriuretic peptide by ELISA after SC bolus in CD-1 mice (pharmacokinetics, Table 3); conditions: male, CD-1, mouse, in vivo, 1 mg/kg
Protocol: as §1

SMILES: CCCCCCCCCCCCCCCC(=O)NCCOCCOCC(=O)NCCOCCOCC(=O)NCCOCCOCC(=O)N[C@@H](CN)C(=O)N[C@@H](CN)C(=O)N[C@@H](CO)C(=O)N[C@@H](CC(C)C)C(=O)N[C@@H](CCCNC(=N)N)C(=O)N[C@@H](CCCNC(=N)N)C(=O)N[C@@H](CO)C(=O)N[C@@H](CO)C(=O)N[C@H]1CSSC[C@@H](C(=O)N[C@@H](CC(N)=O)C(=O)N[C@@H](CO)C(=O)N[C@@H](Cc2ccccc2)C(=O)N[C@@H](CCCNC(=N)N)C(=O)N[C@@H](Cc2ccc(O)cc2)C(=O)O)NC(=O)CNC(=O)[C@H](CC(C)C)NC(=O)CNC(=O)[C@H](CO)NC(=O)[C@H](CCC(N)=O)NC(=O)[C@H](C)NC(=O)CNC(=O)[C@H]([C@@H](C)CC)NC(=O)[C@H](CCCNC(=N)N)NC(=O)[C@H](CC(=O)O)NC(=O)[C@H](CC(C)C)NC(=O)[C@H](CCCNC(=N)N)NC(=O)CNC(=O)CNC(=O)[C@H](Cc2ccccc2)NC1=O [SEQ ID NO: 45]
- Plasma concentration of cGMP, 2 hr (cGMP): 123.82** pmol/mL
- Plasma concentration of cGMP, 6 hr (cGMP): 16.18 pmol/mL

SMILES: CCCCCCCCCCCCCCCC(=O)NCCOCCOCC(=O)NCCOCCOCC(=O)NCCOCCOCC(=O)N[C@@H](CN)C(=O)N[C@@H](CN)C(=O)N[C@@H](CO)C(=O)N[C@@H](CC(C)C)C(=O)N[C@@H](CCCNC(=N)N)C(=O)N[C@@H](CCCNC(=N)N)C(=O)N[C@@H](CO)C(=O)N[C@@H](CO)C(=O)N[C@H]1CSSC[C@@H](C(=O)N[C@@H](CC(N)=O)C(=O)N[C@@H](CO)C(=O)N[C@@H](Cc2ccccc2)C(=O)N[C@@H](CCCNC(=N)N)C(=O)N[C@@H](Cc2ccc(O)cc2)C(=O)O)NC(=O)CNC(=O)[C@H](CC(C)C)NC(=O)CNC(=O)[C@H](CO)NC(=O)[C@H](CCC(N)=O)NC(=O)[C@H](C)NC(=O)CNC(=O)[C@H]([C@@H](C)CC)NC(=O)[C@H](CCCNC(=N)N)NC(=O)[C@H](CC(=O)O)NC(=O)[C@H](CCC(N)=O)NC(=O)[C@H](CCCNC(=N)N)NC(=O)CNC(=O)CNC(=O)[C@H](Cc2ccccc2)NC1=O [SEQ ID NO: 46]
- Plasma concentration of cGMP, 2 hr (cGMP): 76.68** pmol/mL
- Plasma concentration of cGMP, 6 hr (cGMP): 17.11 pmol/mL

SMILES: CCCCCCCCCCCCCCCC(=O)NCCOCCOCC(=O)NCCOCCOCC(=O)NCCOCCOCC(=O)N[C@@H](CN)C(=O)N[C@@H](CN)C(=O)N[C@@H](CO)C(=O)N[C@@H](CC(C)C)C(=O)N[C@@H](CCCNC(=N)N)C(=O)N[C@@H](CCCNC(=N)N)C(=O)N[C@@H](CO)C(=O)N[C@@H](CO)C(=O)N[C@H]1CSSC[C@@H](C(=O)N[C@@H](CC(N)=O)C(=O)N[C@@H](CO)C(=O)N[C@@H](Cc2ccccc2)C(=O)N[C@@H](CCCNC(=N)N)C(=O)N[C@@H](Cc2ccc(O)cc2)C(=O)O)NC(=O)CNC(=O)[C@H](CC(C)C)NC(=O)CNC(=O)[C@H](CO)NC(=O)[C@H](CCC(N)=O)NC(=O)[C@H](C)NC(=O)CNC(=O)[C@H]([C@@H](C)CC)NC(=O)[C@H](CCCNC(=N)N)NC(=O)[C@H](CC(=O)O)NC(=O)[C@H](CCSC)NC(=O)[C@H](CCCNC(=N)N)NC(=O)CNC(=O)CNC(=O)[C@H](Cc2ccccc2)NC1=O [SEQ ID NO: 47]
- level at 2 h [1]: 67.1 ng/mL
- level at 6 h [1]: 37.2 ng/mL
- Plasma concentration of cGMP, 2 hr (cGMP): 52.05 pmol/mL
- Plasma concentration of cGMP, 6 hr (cGMP): 8.00 pmol/mL
